The values below come from PubChem BioAssay AID434962 (The Scripps Research Institute Molecular Screening Center, 2010).

Chains of the proteins cited; added tags and fusions are not shown.
UniProt P14735, whole entry: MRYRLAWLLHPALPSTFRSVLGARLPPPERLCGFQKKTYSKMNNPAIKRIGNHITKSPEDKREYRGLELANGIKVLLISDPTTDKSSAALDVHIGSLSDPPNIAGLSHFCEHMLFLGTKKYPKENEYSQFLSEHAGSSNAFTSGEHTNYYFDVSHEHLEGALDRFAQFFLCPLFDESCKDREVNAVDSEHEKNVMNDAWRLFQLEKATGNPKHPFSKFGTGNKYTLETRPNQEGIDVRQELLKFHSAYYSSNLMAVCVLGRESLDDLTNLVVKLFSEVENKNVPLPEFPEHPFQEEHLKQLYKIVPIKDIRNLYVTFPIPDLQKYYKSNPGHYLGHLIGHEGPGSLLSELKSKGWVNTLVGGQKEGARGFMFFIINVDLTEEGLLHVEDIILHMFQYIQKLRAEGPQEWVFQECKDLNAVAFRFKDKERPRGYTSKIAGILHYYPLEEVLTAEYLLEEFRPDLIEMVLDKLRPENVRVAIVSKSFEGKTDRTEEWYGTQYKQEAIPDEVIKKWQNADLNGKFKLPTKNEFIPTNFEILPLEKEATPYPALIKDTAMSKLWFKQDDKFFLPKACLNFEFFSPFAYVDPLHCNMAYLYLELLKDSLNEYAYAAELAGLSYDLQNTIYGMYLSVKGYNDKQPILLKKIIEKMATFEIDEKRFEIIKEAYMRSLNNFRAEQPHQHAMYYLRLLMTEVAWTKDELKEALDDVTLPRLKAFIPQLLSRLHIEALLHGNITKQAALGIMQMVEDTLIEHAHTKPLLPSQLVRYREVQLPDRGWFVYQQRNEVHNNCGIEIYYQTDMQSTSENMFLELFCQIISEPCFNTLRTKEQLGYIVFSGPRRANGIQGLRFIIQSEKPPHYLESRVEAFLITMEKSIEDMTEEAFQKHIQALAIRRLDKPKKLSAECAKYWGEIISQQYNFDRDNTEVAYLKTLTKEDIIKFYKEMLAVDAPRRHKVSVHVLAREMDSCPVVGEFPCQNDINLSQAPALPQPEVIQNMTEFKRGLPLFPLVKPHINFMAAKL

Only a part is listed here, and it is no random draw. Active and inactive are the calls of the source.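 How the source made its calls: active means percent inhibition above the average of all tested compounds plus 3 SD, set per screening campaign (cut at about 16% in these data); inactive means the rest.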

For the experiment, the target named is Insulin-degrading enzyme (Homo sapiens) (UniProt P14735). Description: cellular IDE Abeta-cleavage inhibition – fluorescence polarization, HEK cells, FAbetaB substrate, primary screen (AID 434962).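 Further: IDE supplied by intact live HEK cells; FP after avidin binding of uncleaved biotin substrate so inhibition keeps polarization high; 0% = DMSO wells and 100% = 60 µM reference IDE inhibitor Ii1.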 The conditions noted are these: at 5.59 µM, stronger effect = higher value.
One may read the inhibition as the drop in the measured response relative to a control, in per cent. In the case of `CCC(=O)N(c1ccccc1)C1(COC)CCN(CCn2nnn(CC)c2=O)CC1`, the inhibition is inactive: 1.57%.

Consider `CCC(=O)N(c1ccccc1)C1(COC)CCN(CCc2cccs2)CC1`, for which the inhibition was inactive: 1.24%.
